From US8278063B2, “Methods for degrading toxic compounds” (Commonwealth Scientific and Industrial Research Organisation, priority 2007, dated 2012)

Sequences of proteins named here, by UniProt entry; tags and fusion partners are left off. A change or cut given only in a name is not applied to a line headed by its entry.
UniProt C8CP46: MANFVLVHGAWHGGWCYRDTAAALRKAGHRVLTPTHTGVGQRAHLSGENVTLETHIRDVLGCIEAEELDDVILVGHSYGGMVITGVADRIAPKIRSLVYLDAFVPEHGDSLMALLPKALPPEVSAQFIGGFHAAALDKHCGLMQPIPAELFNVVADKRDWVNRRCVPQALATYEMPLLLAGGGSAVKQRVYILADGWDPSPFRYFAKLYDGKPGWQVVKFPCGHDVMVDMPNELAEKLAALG

What was measured:
[1] = cited from earlier work
Nocardioides sp. SG-4G = test: Resting cell studies of carbendazim degradation (LC-MS); type: cell-based; conditions: 8 ppm carbendazim, resting cells of strain SG-4G
SG-4G 30 kD retentate [2] = test: Carbendazim degrading activity of the 30 kD retentate; type: biochemical, Nocardioides sp. SG-4G; conditions: 30 kD retentate (proteins 30-50 kD) of resting cell supernatant
SG-4G 30 kD retentate [3] = conditions: 10 μM final substrate, 25 mM Tris-HCl pH8.0, 30° C., FIG. 10
[4] = molecular target: carbendazim hydrolysing enzyme from strain SG-4G (Nocardioides sp., UniProt C8CP46); test: Esterase activity of ion exchange chromatography fractions; type: biochemical, Nocardioides sp. SG-4G; conditions: fractions showing carbendazim hydrolytic activity, FIG. 4

Row | Compound | activity of SG-4G protein extract for SP substrate (SG-4G 30 kD retentate [3]) | also measured
1 | COC(=O)Nc1nc2ccccc2[nH]1 [carbendazim] |  | solubility [1]: 8 ppm; time to complete disappearance and mineralisation (Nocardioides sp. SG-4G): three; carbendazim degrading activity (SG-4G 30 kD retentate [2]): shown to have activity
2 | (R)-α-Cyano-(6-methoxynaphthalen-2-yl)methyl (1R)trans-3-(2,2-Dichloro vinyl)-2,2-dimethylcyclopropanecarboxylate | significant activity | 
3 | (R)-α-Cyano-(6-methoxynaphthalen-2-yl)methyl (1S)trans-3-(2,2-Dichloro vinyl)-2,2-dimethylcyclopropanecarboxylate | No activity | 
4 | (R)-α-Cyano-(6-methoxynaphthalen-2-yl)methyl (2R)-(4-Chlorophenyl)-3-methylbutanoate | No activity | 
5 | (S)-α-Cyano-(6-methoxy naphthalen-2-yl)methyl (1R) cis-3-(2,2-Dichlorovinyl)-2,2-dimethylcyclopropanecarboxylate | significant activity | 
6 | (S)-α-Cyano-(6-methoxynaphthalen-2-yl)methyl (1S) trans-3-(2,2-Dichlorovinyl)-2,2-dimethylcyclopropanecarboxylate | significant activity | 
7 | naphthyl acetate |  | esterase activity [4]: demonstrated esterase activity
